Earlier results, collected in publication PMC11243530, “A Bicyclic Analog of the Linear Peptide Arodyn Is a Potent and Selective Kappa Opioid Receptor Antagonist” (Molecules, 2024).

Protein sequences, listed by entry. Tags and fused reporters are not part of them. Lines headed by an entry give the natural chain unless they say otherwise; changes in a name come on top.
UniProt P33535, whole entry: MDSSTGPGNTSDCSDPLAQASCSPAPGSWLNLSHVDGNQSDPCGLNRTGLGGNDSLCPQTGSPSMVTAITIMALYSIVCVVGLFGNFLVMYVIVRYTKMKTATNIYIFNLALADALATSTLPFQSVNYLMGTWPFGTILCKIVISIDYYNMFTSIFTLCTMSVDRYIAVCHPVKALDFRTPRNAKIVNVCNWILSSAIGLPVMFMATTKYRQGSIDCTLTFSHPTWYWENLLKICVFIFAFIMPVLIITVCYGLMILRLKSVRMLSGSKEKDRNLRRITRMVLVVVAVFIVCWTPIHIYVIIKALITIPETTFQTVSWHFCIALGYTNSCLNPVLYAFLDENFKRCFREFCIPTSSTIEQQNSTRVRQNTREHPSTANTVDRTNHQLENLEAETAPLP
UniProt P34975: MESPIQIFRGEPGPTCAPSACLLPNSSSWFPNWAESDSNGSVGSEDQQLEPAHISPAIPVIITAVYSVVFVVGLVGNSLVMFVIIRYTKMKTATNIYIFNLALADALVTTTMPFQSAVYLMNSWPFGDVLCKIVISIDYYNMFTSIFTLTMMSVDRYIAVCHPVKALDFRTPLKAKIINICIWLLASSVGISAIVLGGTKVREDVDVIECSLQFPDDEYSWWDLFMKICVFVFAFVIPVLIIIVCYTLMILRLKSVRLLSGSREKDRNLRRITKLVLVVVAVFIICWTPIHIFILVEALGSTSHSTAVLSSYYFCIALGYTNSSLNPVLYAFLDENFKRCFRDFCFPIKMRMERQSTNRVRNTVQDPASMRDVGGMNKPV

Legend:
cloned rat MOR = molecular target: T1, cloned rat MOR (Rattus norvegicus, UniProt P33535); set-up: method as in 2 sources, one per row (each row's own in cited_ref): ref [6] = [6]; PMID 12477343; doi:10.1021/jm025575g; 6. Bennett M.A. Murray T.F. Aldrich J.V. Identification of Arodyn, a Novel Acetylated Dynorphin A-(1–11) Analogue, as a κ Opioid Receptor Antagonist J. Med. Chem. 2002 45 5617 5619 10.1021/jm025575g 1 ||| ref [25] = [25]; doi:10.1007/s00044-021-02758-x; 25. Fang W.-J. Murray T.F. Aldrich J.V. Analogs of the κ Opioid Receptor Antagonist Arodyn Cyclized by Ring-Closing Metathesis Retain κ Opioid Receptor Affinity, Selectivity and κ Opioid Receptor Anta; settings: used for Ki calculation (Cheng and Prusoff); unit inferred; source of the value not stated; read-out: KD of radioligand at MOR; cited from earlier work
T1 construct: expressed in transfected cells

cloned rat KOR = molecular target: T2, cloned rat KOR (Rattus norvegicus, UniProt P34975); settings: read-out: KOR Ki ± SEM; cited from earlier work
T2 construct: expressed in transfected cells

| Substance | Kd (cloned rat MOR) | Ki (cloned rat KOR) |
| --- | --- | --- |
| [D-Ala^2,MePhe^4, glyol]enkephalin [[^3H]DAMGO] | 0.49 nM | – |
| Ac[Phe^1,2,3,Arg^4,D-Ala^8]dynorphin A-(1–11)-NH2 (FFFRLRRARPK) [arodyn] | – | 10 ± 3 nM |
